# Earlier results, collected in paper PMC4774423.
# Chains of the proteins cited; added tags and fusions are not shown. Residues count along the entry.
# UniProt Q07021, 74-282: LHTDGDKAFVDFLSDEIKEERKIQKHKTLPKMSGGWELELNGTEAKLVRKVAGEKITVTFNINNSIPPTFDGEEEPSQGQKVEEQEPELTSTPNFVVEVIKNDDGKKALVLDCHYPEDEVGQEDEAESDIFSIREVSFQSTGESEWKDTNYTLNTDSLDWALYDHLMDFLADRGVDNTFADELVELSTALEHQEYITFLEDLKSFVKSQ
# UniProt P27797, 18-417: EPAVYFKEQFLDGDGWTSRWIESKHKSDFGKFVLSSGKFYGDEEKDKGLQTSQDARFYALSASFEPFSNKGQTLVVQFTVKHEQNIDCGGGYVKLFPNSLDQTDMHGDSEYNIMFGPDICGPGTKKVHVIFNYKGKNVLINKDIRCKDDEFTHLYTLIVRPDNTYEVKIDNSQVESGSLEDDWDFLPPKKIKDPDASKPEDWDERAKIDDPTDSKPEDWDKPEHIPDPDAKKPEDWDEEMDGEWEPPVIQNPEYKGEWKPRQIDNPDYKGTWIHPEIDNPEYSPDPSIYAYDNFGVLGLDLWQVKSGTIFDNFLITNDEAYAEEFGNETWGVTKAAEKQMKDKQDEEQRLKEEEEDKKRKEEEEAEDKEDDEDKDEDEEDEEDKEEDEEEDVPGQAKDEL
# UniProt P02745, 23-245: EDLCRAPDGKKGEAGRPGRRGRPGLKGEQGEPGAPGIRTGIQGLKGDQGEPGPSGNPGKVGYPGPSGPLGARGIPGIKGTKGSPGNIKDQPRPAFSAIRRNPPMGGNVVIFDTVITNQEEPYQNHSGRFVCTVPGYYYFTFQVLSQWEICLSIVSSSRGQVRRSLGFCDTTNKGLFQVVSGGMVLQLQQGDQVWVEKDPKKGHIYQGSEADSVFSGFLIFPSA
# How the values were obtained:
# gC1qR (Homo sapiens) = gC1qR (Homo sapiens) (UniProt Q07021)
# CRT (Homo sapiens) = CRT (Homo sapiens) (UniProt P27797)
substance,measurement,setting,value
C1q-GR globular region (from UniProt P02745),Kd,gC1qR (Homo sapiens),0.37 µM
same,Kd,CRT (Homo sapiens),0.83 µM
